# Test results as given in patent US7332596B1 (priority 1999, dated 2008).
# Assay: gel assay and MALDI-TOF of proteolysis by potato intercellular wash fluid
# Conditions: 5 minutes in pIWF; relative to the other FCWP proteins
row,SMILES,resistance to proteolysis in potato intercellular wash fluid in vitro
1,CC(C)C[C@H](NC(=O)CNC(=O)[C@@H](NC(=O)[C@H](CCCCN)NC(=O)[C@@H](N)C(C)C)C(C)C)C(=O)N[C@@H](C)C(=O)N[C@H](C(=O)N[C@@H](CCCCN)C(=O)N[C@@H](C)C(=O)N[C@@H](CCC(=O)O)C(=O)N[C@@H](CCCNC(=N)N)C(=O)N[C@@H](C)C(=O)N[C@@H](CO)C(=O)N[C@@H](CCCNC(=N)N)C(=O)N[C@@H](CCC(N)=O)C(=O)N[C@@H](CCC(N)=O)C(=O)N[C@@H](CCCNC(=N)N)C(=O)N[C@@H](CCCCN)C(=O)N[C@@H](CCC(N)=O)C(=O)N[C@@H](CCCNC(=N)N)C(=O)N[C@@H](CCCCN)C(=O)N[C@@H](CC(N)=O)C(=O)N[C@@H](CCCNC(=N)N)C(=O)N[C@@H](CCC(N)=O)C(=O)N[C@@H](CCCCN)C(=O)N[C@H](C(=O)N[C@@H](CCCNC(=N)N)C(=O)N[C@@H](CCCNC(=N)N)C(=O)NCC(=O)N[C@H](C(=O)N[C@@H](CCCNC(=N)N)C(=O)N[C@@H](CCCCN)C(=O)N[C@H](C(=O)N[C@@H](CCCCN)C(=O)NCC(=O)N[C@@H](C)C(=O)N[C@@H](CCCCN)C(=O)N[C@@H](C)C(=O)N[C@@H](CCCCN)C(=O)N[C@@H](CCCCN)C(=O)O)C(C)C)[C@@H](C)O)[C@@H](C)O)[C@@H](C)O,more resistant
2,CC(C)C[C@H](NC(=O)CNC(=O)[C@@H](NC(=O)[C@H](CCCCN)NC(=O)[C@@H](N)C(C)C)C(C)C)C(=O)N[C@@H](C)C(=O)N[C@H](C(=O)N[C@@H](CCCCN)C(=O)N[C@@H](C)C(=O)N[C@@H](CCC(=O)O)C(=O)N[C@@H](CCCNC(=N)N)C(=O)N[C@@H](C)C(=O)N[C@@H](CO)C(=O)N[C@@H](CCCNC(=N)N)C(=O)N[C@@H](CCC(N)=O)C(=O)N[C@@H](CCC(N)=O)C(=O)N[C@@H](CCCNC(=N)N)C(=O)N[C@@H](CCCCN)C(=O)N[C@@H](CCC(N)=O)C(=O)N[C@@H](CCCNC(=N)N)C(=O)N[C@@H](CCCCN)C(=O)N[C@@H](CC(N)=O)C(=O)N[C@@H](CCCNC(=N)N)C(=O)N[C@@H](CCC(N)=O)C(=O)N[C@@H](CCCCN)C(=O)N[C@H](C(=O)N[C@@H](CC(C)C)C(=O)N[C@@H](CCCNC(=N)N)C(=O)NCC(=O)N[C@H](C(=O)N[C@@H](CCCNC(=N)N)C(=O)N[C@@H](CCCCN)C(=O)N[C@H](C(=O)N[C@@H](CCCCN)C(=O)NCC(=O)N[C@@H](C)C(=O)N[C@@H](CCCCN)C(=O)N[C@@H](C)C(=O)N[C@@H](CCCCN)C(=O)N[C@@H](CCCCN)C(=O)O)C(C)C)[C@@H](C)O)[C@@H](C)O)[C@@H](C)O,more resistant
